Source: IntAct's records for PubMed 20329707

B1: Single-stranded DNA-binding protein (Escherichia coli (strain K12)), P0AGE0 (parent)
chain: MASRGVNKVILVGNLGQDPEVRYMPNGGAVANITLATSESWRDKATGEMKEQTEWHRVVLFGKLAEVASEYLRKGSQVYIEGQLRTRKWTDQSGQDRYTTEVVVNVGGTMQMLGGRQGGGAPAGGNIGGGQPQGGWGQPQQPQGGNQFSGGAQSRPQQSAPAAPSNEPPMDFDDDIPF

Variants of: B1
Details: with holc_ecoli holC

| effect of a mutation on the interaction | Variant |
| --- | --- |
| disrupting interaction | P177S |

Variants of: B1
Details: with pria_ecoli priA

| effect of a mutation on the interaction | Variant |
| --- | --- |
| disrupting interaction | P177S |
